# Laboratory results as given in PubChem BioAssay AID811 (The Scripps Research Institute Molecular Screening Center, 2007).
# Chains of the proteins cited; added tags and fusions are not shown.
# UniProt O00206, whole entry: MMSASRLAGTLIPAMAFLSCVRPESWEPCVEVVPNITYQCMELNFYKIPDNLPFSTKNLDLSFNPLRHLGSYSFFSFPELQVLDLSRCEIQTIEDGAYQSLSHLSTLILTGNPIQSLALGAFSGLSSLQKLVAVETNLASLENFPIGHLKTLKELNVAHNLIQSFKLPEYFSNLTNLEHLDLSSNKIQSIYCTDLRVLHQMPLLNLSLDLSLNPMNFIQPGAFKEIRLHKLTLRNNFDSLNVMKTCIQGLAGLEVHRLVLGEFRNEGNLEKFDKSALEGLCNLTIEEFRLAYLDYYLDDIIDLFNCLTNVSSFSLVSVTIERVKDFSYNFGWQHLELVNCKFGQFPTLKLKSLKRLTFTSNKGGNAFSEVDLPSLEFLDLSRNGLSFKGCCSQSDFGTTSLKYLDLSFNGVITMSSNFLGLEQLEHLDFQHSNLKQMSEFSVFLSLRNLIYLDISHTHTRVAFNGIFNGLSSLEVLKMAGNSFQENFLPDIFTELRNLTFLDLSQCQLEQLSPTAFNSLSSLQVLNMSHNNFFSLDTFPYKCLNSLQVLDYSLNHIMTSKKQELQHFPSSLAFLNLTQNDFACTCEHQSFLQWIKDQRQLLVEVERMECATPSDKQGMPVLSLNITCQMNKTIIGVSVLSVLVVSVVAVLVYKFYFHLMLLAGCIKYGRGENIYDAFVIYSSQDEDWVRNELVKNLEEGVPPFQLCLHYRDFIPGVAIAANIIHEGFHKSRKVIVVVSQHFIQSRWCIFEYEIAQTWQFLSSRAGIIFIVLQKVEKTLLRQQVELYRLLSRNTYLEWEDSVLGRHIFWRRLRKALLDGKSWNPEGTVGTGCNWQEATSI
# The entries are a selection whose mix differs from that of the whole data set. Calls of active or inactive are those of the source. No stated cut-off is given here; in the data, active means inhibition above about 45%; inactive means the rest.
# Target: Toll-like receptor 4 (Homo sapiens) (UniProt O00206)
# Experiment: inhibitors of human TLR4-MyD88 binding (AID 811)
# Conditions: Cell-based TLR4-MyD88 binding inhibition assay; at 10 µM; hits give high values
row,SMILES,inhibition
1,Cc1ccccc1NC1CC(C)(C)NC(C)(C)C1,inactive: 2.33%
